Among the data in publication PMC7201283, “Crystal structure of the NS3-like helicase from Alongshan virus” (IUCrJ, 2020) are Km and kcat values, retold here.

By Km is commonly meant the substrate concentration at which the rate is half of its maximum. Usually kcat stands for the number of substrate molecules converted per active site and unit of time at saturation.

This series deals with Nc1ncnc2c1ncn2[C@@H]1O[C@H](COP(=O)(O)OP(=O)(O)OP(=O)(O)O)[C@@H](O)[C@H]1O. In words: purified protein. The note with it: 20 mM Tris-HCl pH 8.0, 5 mM DTT, 10 mM MgCl2, 28°C, 16 nM enzyme, no RNA.

ALSV NS3-Hel (Alongshan virus): the Michaelis-Menten constant (Km) is 55 ± 8 µM and the kcat was found to be 0.61 ± 0.04 s⁻¹.
